Laboratory results: patent publication US20250223317A1, “KEAP1 INHIBITING PROTEIN-LIKE POLYMERS” (NORTHWESTERN UNIVERSITY, priority 2022, published 2025)

Amino acid sequences for entries named in this document (tags omitted). Residues count along the entry.
UniProt Q14145, whole entry: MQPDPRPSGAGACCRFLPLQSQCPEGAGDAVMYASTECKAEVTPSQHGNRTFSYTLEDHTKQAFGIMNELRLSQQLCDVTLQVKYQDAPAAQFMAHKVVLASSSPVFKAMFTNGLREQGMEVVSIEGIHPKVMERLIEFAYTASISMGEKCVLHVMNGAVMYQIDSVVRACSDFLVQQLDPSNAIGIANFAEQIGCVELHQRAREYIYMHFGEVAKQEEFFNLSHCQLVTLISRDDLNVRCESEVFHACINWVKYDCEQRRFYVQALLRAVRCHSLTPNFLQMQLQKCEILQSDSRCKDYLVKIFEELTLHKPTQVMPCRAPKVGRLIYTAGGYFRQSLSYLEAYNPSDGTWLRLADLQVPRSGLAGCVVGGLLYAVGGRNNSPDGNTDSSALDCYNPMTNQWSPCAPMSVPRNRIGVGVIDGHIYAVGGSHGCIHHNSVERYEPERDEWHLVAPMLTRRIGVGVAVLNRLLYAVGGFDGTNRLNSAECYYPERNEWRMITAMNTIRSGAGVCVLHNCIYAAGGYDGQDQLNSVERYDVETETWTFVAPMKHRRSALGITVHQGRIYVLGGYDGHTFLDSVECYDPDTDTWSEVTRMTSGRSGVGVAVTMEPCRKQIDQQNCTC
UniProt Q14145, 321-609 limits assumed: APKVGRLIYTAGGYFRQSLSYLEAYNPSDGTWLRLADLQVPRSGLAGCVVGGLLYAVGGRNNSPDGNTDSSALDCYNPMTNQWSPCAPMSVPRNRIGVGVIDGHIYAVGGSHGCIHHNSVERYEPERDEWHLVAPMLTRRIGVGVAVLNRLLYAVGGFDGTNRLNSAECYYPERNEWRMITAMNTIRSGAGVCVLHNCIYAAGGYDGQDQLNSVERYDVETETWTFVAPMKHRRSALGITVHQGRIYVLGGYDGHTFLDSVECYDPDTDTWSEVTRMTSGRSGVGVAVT

B1: polynorbornene dicarboxyimide-based brush block copolymer of SEQ ID NO: 2 (DLG) and SEQ ID NO: 150 (ETGE), DLG:ETGE ratio 8:8 (peptide)
peptide 1: RQDIDLGVSRR
peptide 2: LDPETGEFLRRRR
modifications: N-terminus amide-coupled to N-(hexanoic acid)-cis-5-norbornene-exo-dicarboximide, which is polymerised into the backbone (block B); N-terminus amide-coupled to N-(hexanoic acid)-cis-5-norbornene-exo-dicarboximide, which is polymerised into the backbone (block A)

Assays:
[1] = target: T1, human recombinant Keap1 (Homo sapiens, UniProt Q14145); test: Fluorescence polarization Keap1 binding assay (percent FAM-Nrf2 binding); conditions: Example 14
T1 construct: purchased BPS bioscience, San Diego, CA
Method: The polynorbornene dicarboxyimide-based brush homopolymers were assessed for Keap1/Nrf2 disruption using a competitive inhibition screening assay that uses labeled Nrf2 peptide (FAM-[…]) and human recombinant Keap1 (BPS bioscience, San Diego, CA). The assay was carried out according to established protocols. Briefly, test inhibitors (n=3) were added at varying concentrations to wells of a black 96-well plate along with assay buffer, BSA, FAM-Nrf2, and Keap1 and allowed to incubate for 30 minutes at room temperature. […] Blank control was assay buffer and inhibitor vehicle. Nrf2 negative binding control included assay buffer, BSA, FAM-Nrf2, and inhibitor vehicle. Nrf2 positive binding control included assay buffer, BSA, FAM-Nrf2, inhibitor vehicle and Keap1. Data was assessed for IC50 values by quantifying percent Nrf2 activity relative to inhibitor concentration by fitting to a nonlinear model for a dose response (absolute IC50) using Prism 9. […]
The polynorbornene dicarboxyimide-based brush homopolymer and copolymers were assessed for Keap1/Nrf2 disruption using a competitive inhibition screening assay that uses labeled Nrf2 peptide (FAM-[…]) and human recombinant Keap1 (BPS bioscience, San Diego, CA). […] Data was assessed for IC50 values by quantifying percent Nrf2 activity relative to inhibitor concentration by fitting to a nonlinear model for a dose response (absolute IC50) using Prism 9.

[2] = tested on: Antioxidant Response Element (ARE); test: ARE luciferase reporter assay (ARE activation); format: cell-based; conditions: 0 μM to 10 μM, 24 hours post-treatment
[3] = target: Kelch domain labeled with biotin (bound to streptavidin-europium energy donor) (UniProt Q14145); test: TR-FRET competition with AF647-… on biotin-labeled Kelch domain

Molecule	competition with the labeled Nrf2 peptide (FAM-LDEETGEFL) at concentrations less than 100 nM [1]	ARE activation (relative luminescence) [2]	IC50 [3]
DLG Homopolymer (RQDIDLGVSRR)	does not out compete	does not activate alone	
B1			388 µM
